Activity calls are given as the source filed them. No cut-off for these calls is given here.
Molecular target: T1, Protein arginine N-methyltransferase 9 (Homo sapiens) (UniProt Q6P2P2)
T1 sequence (whole entry): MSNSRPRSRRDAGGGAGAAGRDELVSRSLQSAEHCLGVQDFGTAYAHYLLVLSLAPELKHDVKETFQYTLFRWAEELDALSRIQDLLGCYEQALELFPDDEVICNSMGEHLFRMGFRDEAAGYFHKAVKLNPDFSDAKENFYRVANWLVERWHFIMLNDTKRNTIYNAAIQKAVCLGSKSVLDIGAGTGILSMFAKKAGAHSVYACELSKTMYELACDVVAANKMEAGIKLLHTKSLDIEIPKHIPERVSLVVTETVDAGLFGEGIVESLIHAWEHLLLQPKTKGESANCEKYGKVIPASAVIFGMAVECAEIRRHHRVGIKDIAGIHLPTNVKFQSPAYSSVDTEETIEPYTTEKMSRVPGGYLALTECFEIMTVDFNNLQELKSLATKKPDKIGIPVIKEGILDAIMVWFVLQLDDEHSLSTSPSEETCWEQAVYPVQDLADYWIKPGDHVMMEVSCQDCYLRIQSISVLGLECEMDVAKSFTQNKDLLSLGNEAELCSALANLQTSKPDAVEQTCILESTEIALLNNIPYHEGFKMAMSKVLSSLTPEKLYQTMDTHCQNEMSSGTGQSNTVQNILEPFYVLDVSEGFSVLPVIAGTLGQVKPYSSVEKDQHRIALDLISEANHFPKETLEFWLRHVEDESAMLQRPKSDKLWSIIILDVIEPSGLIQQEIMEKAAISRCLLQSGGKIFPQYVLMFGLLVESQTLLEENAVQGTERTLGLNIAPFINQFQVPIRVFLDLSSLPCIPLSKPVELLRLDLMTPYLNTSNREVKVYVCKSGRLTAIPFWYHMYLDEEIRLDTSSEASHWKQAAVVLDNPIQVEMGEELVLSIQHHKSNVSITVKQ
Assay: Inhibition of human GST-fused PRMT9 expressed in Escherichia coli upto 500 uM using human GST-SF3B2 (401 to 550 residues) peptide as substrate and human histone H2B as cosubstrate incubated under 37 degreeC in presence of 3H-SAM by SDS-PAGE based densitometric analysis

Structure (SMILES): O=C(NC[C@H](O)CN1CCc2ccccc2C1)c1cc(NC2COC2)ncn1
- inhibition: inactive

Reference: ChEMBL document CHEMBL5365419, “Identification of a Protein Arginine Methyltransferase 7 (PRMT7)/Protein Arginine Methyltransferase 9 (PRMT9) Inhibitor” (J Med Chem, 2023)
